{"source": "ChEMBL document CHEMBL3044593", "about": "“Design, synthesis and anticonvulsant evaluation of novel 8-substituted-4(3H)-quinazolines” (Med Chem Res, 2012)", "system": "Mus musculus", "experiment": "Protective index, ratio of TD50 for ip dosed Mus musculus (mouse) to ED50 for protection against pentylenetetrazol-induced seizures in ip dosed mouse", "assay_type": "functional"}
{"smiles": "CCCC(CCC)C(=O)[O-].[Na+]", "note": "[VALPROATE SODIUM]", "values": [{"measurement": "Ratio TD50/ED50", "value": 2}]}
